This data set can be described thus: Release study of agents from the gel. Type of data set: physicochemical.
Where [1] appears, read: release from hydrogel composition #4, 10 h in PBS.

The values that follow come from patent US20230021329A1, “NANOSTRUCTURED BINARY GEL COMPOSITION AND USE THEREOF” (Veri Nano Inc., priority 2019, published 2023).

Consider Bovine serum albumin [BSA], for which, under setting [1], the amount released worked out at 2.78 mg and the percent release is listed as 2.2%. In addition, the concentration in supernatant (release from hydrogel composition #4, 10 hours in PBS at room temperature) amounted to 111 µg/mL.
